The target of this test is AT2 receptor (Homo sapiens (Human), UniProt P50052). The test can be described thus: AT2 Receptor Binding. The conditions noted are these: HEK293 AT2 receptor transient cell membranes, [125I]-CGP42112A.

Amino acid sequences for entries named in this document (tags omitted).
UniProt P50052, whole entry: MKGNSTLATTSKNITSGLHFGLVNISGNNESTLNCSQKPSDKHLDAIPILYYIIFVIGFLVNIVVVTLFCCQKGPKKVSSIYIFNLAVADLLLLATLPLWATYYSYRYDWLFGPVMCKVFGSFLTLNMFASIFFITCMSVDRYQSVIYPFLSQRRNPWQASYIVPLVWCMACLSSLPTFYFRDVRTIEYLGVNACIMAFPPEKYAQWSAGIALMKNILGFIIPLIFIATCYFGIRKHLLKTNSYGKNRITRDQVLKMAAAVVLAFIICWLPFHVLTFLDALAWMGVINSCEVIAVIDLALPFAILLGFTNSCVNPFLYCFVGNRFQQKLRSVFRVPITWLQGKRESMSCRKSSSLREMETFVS

Structures are written as SMILES.

For `O=C(O)[C@@H]1C[C@H](N2CCC[C@H](Cc3ccccc3)C2)CN1C(=O)C(c1ccccc1)c1ccccc1`, the IC50 – broadly, the concentration needed to halve the response being measured – was found to be 50.3 nM.

As for `O=C(O)[C@@H]1C[C@H](N2CCC[C@@H](Cc3ccccc3)C2)CN1C(=O)C(c1ccccc1)c1ccccc1`, the IC50 was determined as 63.2 nM.

The record behind these values is patent US9624243B2, “Heterocyclic compounds and methods of their use” (Novartis AG, priority 2012, dated 2017).
